# scFv variants of Ab-14 (light chain) against a SARS-CoV-2 spike peptide

Target peptide (SARS-CoV-2 spike, HR2 region): PDVDLGDISGINAS

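The variants were designed computationally from a first round of random CDR variants and then made and measured. Group labels follow the data file (Ctrl: baseline library sampled from a position-specific scoring matrix, with some repeated check sequences; GP: Gaussian process model; HC: hill climbing; Gen: genetic algorithm; Gibbs: Gibbs sampling; a sequence that several methods proposed may carry one label only). Affinity was read by AlphaSeq, a pooled yeast mating assay with surface-displayed partners. Binding brings cells together so that they mate, and sequencing counts the barcode pairs among the diploids. A regression on co-assayed BCL2-family reference pairs converts the normalised counts of each replicate to an apparent Kd. The assay was run in six technical replicates.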

Ab-14 is the parent antibody, in scFv form: VH, then the linker GGGGSGGGGSGGGGS, then VL. The heavy chain is unchanged in all variants.
VH: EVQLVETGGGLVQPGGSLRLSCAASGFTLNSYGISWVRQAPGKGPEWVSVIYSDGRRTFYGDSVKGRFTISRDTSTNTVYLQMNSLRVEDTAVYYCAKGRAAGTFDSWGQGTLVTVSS
VL: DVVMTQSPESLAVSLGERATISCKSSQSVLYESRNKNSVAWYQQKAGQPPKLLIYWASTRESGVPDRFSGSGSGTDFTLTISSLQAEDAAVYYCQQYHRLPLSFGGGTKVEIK

Each variant is given by its three light chain CDRs, as the data file delimits them; those of the parent are KSSQSVLYESRNKNSVA, WASTRES, QQYHRLPLS.
This list holds designs with at most six substitutions.
The read-out is the apparent dissociation constant on a log10 scale (nM): the lower, the stronger.
"nd" marks a missing value. The strain was present, yet no cells mated with the target were sequenced in that replicate, which points to weak or no binding.

CDR-L1	CDR-L2	CDR-L3	group	log10 Kd (nM) by replicate	control signals
KLSQSCLYESRNKNNVA	NASTRES	QQYHRLPLS	GP_Gen	-0.09 / -0.24 / -0.37 / -0.27 / -0.41 / -0.08	1 of 18 (2.85)
KSSQSVLYESVNKNSVA	WASTRSS	QQAHRLPLS	Ctrl	nd / 3.95 / nd / nd / nd / nd	1 of 18 (1.51)
KLPNSTLYESRQKNSVA	HASTRES	QQYHRLPLS	GP_HC	0.78 / 0.46 / 0.83 / 0.12 / 0.26 / 0.60	0 of 18
KISQSDLYESRNKNSVA	EASTRES	QQYHRLPLS	GP_Gen	-0.19 / -0.15 / -0.34 / -0.26 / -0.32 / -0.20	0 of 18
KLQQSVLDEERNDNSVA	WASHRES	QQYHRLPLS	GP_Gibbs	0.63 / 0.84 / 1.19 / 0.84 / 0.63 / 1.20	0 of 18
KLSQSTLYESRNKNSVA	NASYRES	QQYHRLPLS	GP_Gen	0.25 / 0.29 / 0.35 / 0.21 / 0.33 / 0.46	1 of 18 (3.02)
KLKQSVLYESRNKNSVA	HASTRED	QQYHRLPLS	GP_HC	0.23 / 0.05 / -0.18 / -0.09 / -0.04 / 0.21	2 of 18 (2.96)
KLSQSYLYESGNKNSVA	NASTRES	QQYHRLPLS	GP_Gen	-0.13 / -0.09 / -0.20 / -0.30 / -0.44 / -0.10	0 of 18
KFSQGVLDESTNKNSVA	RASTRES	QQYHRLPLS	Ctrl	0.32 / 0.47 / 0.36 / 0.25 / 0.28 / 0.58	3 of 18 (3.52)
KSSQEEDYESRNKNSVA	WASTRES	QQYHRLPLS	Ctrl	0.83 / 1.09 / 0.61 / 0.31 / 0.73 / 0.63	0 of 18
KSSQSVAMESRNPNSVA	DASTRES	QQYHRLPLS	GP_HC	-0.09 / -0.29 / -0.43 / -0.47 / -0.49 / -0.26	1 of 18 (1.86)
KWSQSVLFESRNKNSVA	DASTRES	QQYHRLPLS	GP_HC	0.01 / 0.21 / 0.06 / -0.04 / -0.25 / 0.11	2 of 18 (2.12)
KSSISMLGESRNKNSVA	EASTRES	QQYHRLPLS	GP_HC	1.83 / 1.35 / 2.75 / 2.61 / 1.39 / 1.66	1 of 18 (3.31)
KSGQGGLYESRNWNSVA	GASTRES	QQYHRLPLS	GP_HC	0.08 / -0.20 / 0.03 / -0.38 / -0.10 / 0.07	2 of 18 (1.93)
KSSQSVLVESRNPNSVA	WASTRES	QQYPRLPLS	Ctrl	1.69 / nd / nd / nd / nd / nd	2 of 18 (1.21)
VSSQSVLYESRNQNSVA	WASIRES	QQSHRLPLS	Ctrl	nd / nd / nd / nd / nd / nd	0 of 18
KVSQSHLYESRNKNSVA	NASTRES	QQYHRLPLM	GP_Gen	-0.32 / -0.54 / -0.52 / -0.84 / -0.64 / -0.39	1 of 18 (1.64)
KLSLSVLYESRNKNSVA	DASTRES	QQYHRLPLS	GP_HC	0.37 / 0.16 / 0.07 / 0.15 / 0.02 / 0.30	0 of 18
KMYPSYLYESRNKNSVA	QASTRES	QQYHRLPLS	GP_HC	0.59 / 0.55 / 0.74 / 0.57 / 0.48 / 0.46	1 of 18 (2.52)
KISYSVLSESRNKNSVA	WASTRES	QQYHRLPNS	Ctrl	nd / nd / nd / nd / nd / nd	0 of 18
KSSQSVRYESRNKNSVA	DAKTREF	QQYHRLPLK	Ctrl	-0.18 / 2.34 / 0.74 / -0.20 / 0.11 / 0.19	0 of 18
KISQQVLMESRNMNSVA	NASTREE	QQYHRLPLS	GP_Gibbs	0.96 / 0.59 / 1.67 / 1.27 / 1.34 / 1.22	1 of 18 (2.85)
KSSQSGLEESRNKNSVA	SASTRES	QQYHELPLS	Ctrl	1.25 / 2.14 / 1.19 / 1.20 / 1.14 / 0.72	0 of 18
KLPQSWLYESRNKNSVA	NASQRLS	QQYHRLPLS	GP_Gen	0.03 / -0.07 / -0.07 / -0.12 / -0.06 / 0.13	1 of 18 (2.21)
KSSQPVLGESSNKNSVA	TCSTRES	QQYHRLPLS	Ctrl	nd / nd / nd / 2.54 / nd / 2.35	1 of 18 (1.23)
KLSGSNLYESRNKNSVA	EASTRES	QQYHRLPLS	GP_Gen	-0.42 / -0.43 / -0.60 / -0.68 / -0.60 / -0.43	2 of 18 (3.79)
KVSQSYLYESRNKNSVA	WASTRES	QAYHRLPLS	Ctrl	1.18 / 1.28 / 1.65 / 1.12 / 1.03 / 1.21	1 of 18 (3.15)
KMSQSELYESRNKNSVA	EASQRES	QQYHRLPLS	GP_Gen	0.15 / -0.09 / -0.28 / -0.10 / -0.20 / -0.07	0 of 18
KLSQSVLYESRNKNSVA	NASTRES	QMYHRLPLS	GP_Gen	0.65 / 0.57 / 0.31 / 0.43 / 0.31 / 0.61	0 of 18
KLGQGVLYESRNKNSVA	GASQRWS	QQYHRLPLS	GP_HC	0.37 / 0.23 / 0.04 / 0.00 / -0.06 / 0.34	4 of 18 (3.22)
KSGQGVLYESRNKNSVA	GASTRES	QQYHRLPLM	GP_HC	0.47 / 0.11 / -0.27 / -0.12 / -0.21 / 0.13	1 of 18 (1.30)
KSSQSVLYEWRNKHSVA	WASTREP	QQYHRLPLS	Ctrl	nd / nd / nd / nd / nd / nd	0 of 18
KLEQSQLYESRNKNAVA	NASTRES	QQYHRLPLS	GP_Gen	-0.36 / -0.39 / -0.36 / -0.46 / -0.57 / -0.32	1 of 18 (2.99)
KSSQSVLHEQWNKNDVA	WASTRES	QQYHRTPLS	Ctrl	nd / nd / nd / 3.02 / nd / nd	0 of 18
KVEQSVLYESRNKNSVA	NASTRES	QQYHRLPLS	GP_Gen	-0.01 / 0.05 / -0.27 / -0.20 / -0.13 / -0.12	0 of 18
KSSQGWLYESRNKNSVA	WASTRES	QQYHRLPLS	Ctrl	1.38 / 2.28 / 1.42 / nd / nd / 1.66	1 of 18 (2.01)
KSSKSVLYEERNKNSVA	WASTRES	QQYHRLPLS	Ctrl	1.02 / 1.04 / 0.90 / 0.95 / 1.30 / 1.25	1 of 18 (1.64)

In the paper, a design with two or fewer of six values counts as a poor binder.
The parent sequence was in this pool as ten entries: three were never detected, three once, and four in most replicates, with averages from 0.34 to 2.37.
Values of this round are not directly comparable with the first-round values of the same sequences.
Background: pairings of all light chain designs with three empty control strains gave a value in 4% of cases (median 2.64, 5th percentile 1.59). Values in that range, when seen in few replicates, are hard to tell from nonspecific mating. Also given: how often the same scFv was detected with the empty control strains, with their mean in brackets.

Source: Li et al. 2023 (doi:10.1038/s41467-023-39022-2), MIT Lincoln Laboratory and A-Alpha Bio; data file from the FLAb repository.